Biological target: Metabotropic glutamate receptor 7 (Rattus norvegicus, UniProt P35400)
Assay: Negative allosteric modulation of rat mGlu7 receptor expressed in HEK cells co-expressing Galpha15 assessed as reduction in calcium mobilization incubated for 142 secs prior to glutamate addition for 120 secs followed by L-AP4 addition and measured after 40 secs by Fluo-4 AM dye based fluorescence assay
Assay type: functional, cell-based

Sequences of proteins named here, by UniProt entry; tags and fusion partners are left off.
UniProt P35400, whole entry: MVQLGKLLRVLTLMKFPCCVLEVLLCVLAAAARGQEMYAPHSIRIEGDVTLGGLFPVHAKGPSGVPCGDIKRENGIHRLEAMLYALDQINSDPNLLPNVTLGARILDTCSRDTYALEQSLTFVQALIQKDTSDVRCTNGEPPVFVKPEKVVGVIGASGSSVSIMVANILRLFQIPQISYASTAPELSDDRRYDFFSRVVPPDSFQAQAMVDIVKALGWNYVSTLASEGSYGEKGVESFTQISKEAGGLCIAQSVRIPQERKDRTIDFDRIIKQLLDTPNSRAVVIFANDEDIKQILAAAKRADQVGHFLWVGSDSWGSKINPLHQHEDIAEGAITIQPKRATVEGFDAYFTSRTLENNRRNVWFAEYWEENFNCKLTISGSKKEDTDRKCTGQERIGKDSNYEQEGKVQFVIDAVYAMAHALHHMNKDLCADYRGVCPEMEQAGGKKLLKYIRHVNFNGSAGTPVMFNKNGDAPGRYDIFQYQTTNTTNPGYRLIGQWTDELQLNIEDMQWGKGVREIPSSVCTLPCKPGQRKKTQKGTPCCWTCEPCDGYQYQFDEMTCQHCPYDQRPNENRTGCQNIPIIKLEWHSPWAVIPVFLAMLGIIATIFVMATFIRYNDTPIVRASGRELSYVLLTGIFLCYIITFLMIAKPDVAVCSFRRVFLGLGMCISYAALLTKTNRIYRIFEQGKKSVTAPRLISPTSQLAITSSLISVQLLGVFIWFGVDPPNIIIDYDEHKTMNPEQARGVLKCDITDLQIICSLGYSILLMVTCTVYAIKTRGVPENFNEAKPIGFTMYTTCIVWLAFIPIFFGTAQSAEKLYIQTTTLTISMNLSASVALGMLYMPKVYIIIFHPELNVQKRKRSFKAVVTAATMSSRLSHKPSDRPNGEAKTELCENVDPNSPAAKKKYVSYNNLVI

COc1ccc(-c2nnc(-c3cc(OC(F)(F)F)ccc3-n3cccn3)o2)cc1OC
IC50: 2.04 µM
